According to patent US9624280B2 (JANSSEN BIOTECH, INC., priority 2013, dated 2017):
No end group written: not given here.

Protein sequences, listed by entry. Tags and fused reporters are not part of them.
UniProt Q9UQD0, whole entry: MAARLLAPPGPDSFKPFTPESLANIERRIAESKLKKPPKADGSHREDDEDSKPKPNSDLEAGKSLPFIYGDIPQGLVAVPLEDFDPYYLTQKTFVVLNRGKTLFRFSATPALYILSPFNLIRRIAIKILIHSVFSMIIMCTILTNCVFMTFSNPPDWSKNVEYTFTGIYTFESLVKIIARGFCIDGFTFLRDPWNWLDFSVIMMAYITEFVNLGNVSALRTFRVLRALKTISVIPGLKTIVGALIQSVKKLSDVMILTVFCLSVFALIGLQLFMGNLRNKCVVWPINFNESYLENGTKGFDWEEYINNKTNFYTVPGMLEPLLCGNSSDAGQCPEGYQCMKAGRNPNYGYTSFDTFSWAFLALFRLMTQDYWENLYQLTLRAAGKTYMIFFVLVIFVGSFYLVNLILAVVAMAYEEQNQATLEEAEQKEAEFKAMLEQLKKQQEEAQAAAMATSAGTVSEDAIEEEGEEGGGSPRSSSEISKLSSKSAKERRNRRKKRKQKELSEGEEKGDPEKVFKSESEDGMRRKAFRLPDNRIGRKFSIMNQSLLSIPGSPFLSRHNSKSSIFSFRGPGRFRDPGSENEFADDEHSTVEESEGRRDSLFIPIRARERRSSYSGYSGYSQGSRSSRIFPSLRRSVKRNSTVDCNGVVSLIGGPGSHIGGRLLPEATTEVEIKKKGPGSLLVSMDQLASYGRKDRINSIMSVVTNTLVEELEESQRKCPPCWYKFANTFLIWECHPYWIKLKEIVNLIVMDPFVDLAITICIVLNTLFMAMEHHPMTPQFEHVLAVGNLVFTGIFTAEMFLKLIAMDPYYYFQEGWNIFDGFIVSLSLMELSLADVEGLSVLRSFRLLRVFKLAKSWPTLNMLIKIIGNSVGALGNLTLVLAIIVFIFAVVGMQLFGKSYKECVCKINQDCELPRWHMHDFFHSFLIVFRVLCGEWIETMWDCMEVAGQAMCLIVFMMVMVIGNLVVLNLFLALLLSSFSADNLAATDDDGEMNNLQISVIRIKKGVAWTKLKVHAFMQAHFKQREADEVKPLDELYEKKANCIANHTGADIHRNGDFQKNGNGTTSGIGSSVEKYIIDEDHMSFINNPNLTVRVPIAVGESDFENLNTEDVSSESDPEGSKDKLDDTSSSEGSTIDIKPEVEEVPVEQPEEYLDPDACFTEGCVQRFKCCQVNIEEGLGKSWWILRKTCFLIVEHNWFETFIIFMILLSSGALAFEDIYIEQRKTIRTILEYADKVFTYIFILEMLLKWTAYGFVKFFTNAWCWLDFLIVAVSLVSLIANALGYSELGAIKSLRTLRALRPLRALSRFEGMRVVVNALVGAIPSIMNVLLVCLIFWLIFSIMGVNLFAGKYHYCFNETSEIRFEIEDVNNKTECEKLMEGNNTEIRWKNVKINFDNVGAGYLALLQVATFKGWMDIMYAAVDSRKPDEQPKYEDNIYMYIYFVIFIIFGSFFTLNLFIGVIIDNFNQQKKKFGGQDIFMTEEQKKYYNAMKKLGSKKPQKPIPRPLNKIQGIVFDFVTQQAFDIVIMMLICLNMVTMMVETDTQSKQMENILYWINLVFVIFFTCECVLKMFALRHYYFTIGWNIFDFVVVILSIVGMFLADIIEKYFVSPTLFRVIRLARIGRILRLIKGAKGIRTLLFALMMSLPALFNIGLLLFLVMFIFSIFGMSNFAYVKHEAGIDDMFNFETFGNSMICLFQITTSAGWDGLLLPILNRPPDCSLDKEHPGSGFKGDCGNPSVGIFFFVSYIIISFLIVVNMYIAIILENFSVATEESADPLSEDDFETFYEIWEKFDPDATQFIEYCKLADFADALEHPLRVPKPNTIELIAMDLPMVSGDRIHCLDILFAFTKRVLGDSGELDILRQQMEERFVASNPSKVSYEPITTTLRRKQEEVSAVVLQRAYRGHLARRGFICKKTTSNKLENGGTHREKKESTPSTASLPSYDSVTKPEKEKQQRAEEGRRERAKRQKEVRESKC

Biological target: T1, human Nav1.6 (Homo sapiens, UniProt Q9UQD0)
T1 construct: expressed in transfected cells
Assay type: cell-based

Substance	selectivity for Nav1.7 compared to recombinant Protoxin-II	ratio of IC50 for Nav1.6 to IC50 for Nav1.7 (selectivity)
GPSCQKWMQTCDAERKCCEGFVCRLWCKKKLW-OH (cysteine pairing not given here) [NV1D2773]	improved selectivity	
GPYCQKWMWTCDSERKCCEGMVCRLWCKKKLW-OH (cysteine pairing not given here) [NV1D12, reference compound]		about 28 fold
